{"sequences": {"note": "Sequences of proteins named here, by UniProt entry; tags and fusion partners are left off. A change or cut given only in a name is not applied to a line headed by its entry.", "UniProt P05178": "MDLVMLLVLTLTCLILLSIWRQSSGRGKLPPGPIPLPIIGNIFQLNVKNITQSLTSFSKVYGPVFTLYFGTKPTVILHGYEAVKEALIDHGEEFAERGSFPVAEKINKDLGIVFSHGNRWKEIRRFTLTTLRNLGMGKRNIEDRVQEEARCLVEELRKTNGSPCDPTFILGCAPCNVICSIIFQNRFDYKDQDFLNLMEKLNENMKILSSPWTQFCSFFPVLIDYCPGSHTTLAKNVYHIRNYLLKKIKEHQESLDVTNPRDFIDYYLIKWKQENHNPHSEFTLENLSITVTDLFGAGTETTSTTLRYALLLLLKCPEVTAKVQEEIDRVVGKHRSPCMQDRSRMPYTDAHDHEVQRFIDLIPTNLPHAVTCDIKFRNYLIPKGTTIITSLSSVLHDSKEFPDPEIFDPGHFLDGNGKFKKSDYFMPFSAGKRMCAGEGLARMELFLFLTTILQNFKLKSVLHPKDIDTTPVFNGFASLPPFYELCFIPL", "UniProt P10634": "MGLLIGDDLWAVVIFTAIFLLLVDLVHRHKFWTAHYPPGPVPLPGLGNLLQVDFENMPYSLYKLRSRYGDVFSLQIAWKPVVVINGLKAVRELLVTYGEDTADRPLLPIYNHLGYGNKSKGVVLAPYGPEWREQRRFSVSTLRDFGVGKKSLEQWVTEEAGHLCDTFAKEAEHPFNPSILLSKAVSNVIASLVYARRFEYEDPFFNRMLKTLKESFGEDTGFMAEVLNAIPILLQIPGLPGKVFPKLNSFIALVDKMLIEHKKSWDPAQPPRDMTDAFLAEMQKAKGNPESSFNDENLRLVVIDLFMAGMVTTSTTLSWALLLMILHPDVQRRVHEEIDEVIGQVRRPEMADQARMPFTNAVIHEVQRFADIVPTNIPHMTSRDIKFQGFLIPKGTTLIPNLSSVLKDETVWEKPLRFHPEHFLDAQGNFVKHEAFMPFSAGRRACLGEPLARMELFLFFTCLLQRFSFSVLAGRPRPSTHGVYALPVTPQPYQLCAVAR", "UniProt P04799": "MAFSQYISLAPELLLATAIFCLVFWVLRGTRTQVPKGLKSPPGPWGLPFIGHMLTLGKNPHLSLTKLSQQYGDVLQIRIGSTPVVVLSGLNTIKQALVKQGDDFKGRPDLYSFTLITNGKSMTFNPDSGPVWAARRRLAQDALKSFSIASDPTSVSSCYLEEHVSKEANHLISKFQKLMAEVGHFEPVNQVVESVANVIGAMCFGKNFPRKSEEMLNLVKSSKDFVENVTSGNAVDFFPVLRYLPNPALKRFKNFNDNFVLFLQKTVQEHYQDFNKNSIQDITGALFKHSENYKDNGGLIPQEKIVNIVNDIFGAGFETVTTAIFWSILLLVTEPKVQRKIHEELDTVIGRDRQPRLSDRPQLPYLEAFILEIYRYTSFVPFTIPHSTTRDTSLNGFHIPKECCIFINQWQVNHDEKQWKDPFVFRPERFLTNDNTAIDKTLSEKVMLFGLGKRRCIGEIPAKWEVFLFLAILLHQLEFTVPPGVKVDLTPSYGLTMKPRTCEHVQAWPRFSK", "UniProt P05182": "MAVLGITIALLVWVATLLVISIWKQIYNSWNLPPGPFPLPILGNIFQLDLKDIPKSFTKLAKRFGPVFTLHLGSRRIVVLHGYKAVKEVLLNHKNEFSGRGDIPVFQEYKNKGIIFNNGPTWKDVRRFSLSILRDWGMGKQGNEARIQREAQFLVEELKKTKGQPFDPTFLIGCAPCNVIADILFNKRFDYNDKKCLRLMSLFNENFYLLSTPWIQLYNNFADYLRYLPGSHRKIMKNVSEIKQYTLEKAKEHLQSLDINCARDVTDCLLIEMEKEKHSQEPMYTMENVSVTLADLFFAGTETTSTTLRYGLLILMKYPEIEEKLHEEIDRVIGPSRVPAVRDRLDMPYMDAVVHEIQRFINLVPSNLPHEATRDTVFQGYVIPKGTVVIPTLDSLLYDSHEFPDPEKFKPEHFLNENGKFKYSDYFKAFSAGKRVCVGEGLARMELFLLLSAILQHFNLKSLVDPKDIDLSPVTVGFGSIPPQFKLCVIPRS", "UniProt P08683": "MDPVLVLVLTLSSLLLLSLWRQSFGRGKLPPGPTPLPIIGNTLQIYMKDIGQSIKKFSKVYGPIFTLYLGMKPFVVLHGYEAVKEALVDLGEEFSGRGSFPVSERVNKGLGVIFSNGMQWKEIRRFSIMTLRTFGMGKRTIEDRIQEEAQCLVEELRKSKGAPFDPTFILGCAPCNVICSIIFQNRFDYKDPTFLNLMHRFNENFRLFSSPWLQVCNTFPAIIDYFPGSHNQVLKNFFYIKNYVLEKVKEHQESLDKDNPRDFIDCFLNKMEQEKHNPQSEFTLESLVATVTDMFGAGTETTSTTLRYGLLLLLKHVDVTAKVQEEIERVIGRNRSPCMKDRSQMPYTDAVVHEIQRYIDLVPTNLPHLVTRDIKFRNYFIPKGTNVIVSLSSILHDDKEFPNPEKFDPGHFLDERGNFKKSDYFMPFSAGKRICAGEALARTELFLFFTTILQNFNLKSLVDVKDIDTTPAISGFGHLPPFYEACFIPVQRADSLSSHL"}, "source": "paper PMC5861220", "about": "“The Cytochrome P450-Mediated Metabolism Alternation of Four Effective Lignans From Schisandra chinensis in Carbon Tetrachloride-Intoxicated Rats and Patients With Advanced Hepatocellular Carcinoma” (Frontiers in Pharmacology, 2018)", "conditions_in_all_cases": "liver microsomes of CCl4-intoxicated rats vs normal rats, n = 5", "key": {"CYP2C6": {"target": "CYP2C6 (Rattus norvegicus, UniProt P05178)", "assay": "CYP450 activity with probe substrate (diclofenac) in liver microsomes of CCl4-intoxicated rats"}, "CYP3A": {"system": "CYP3A", "assay": "CYP450 activity with probe substrate (midazolam) in liver microsomes of CCl4-intoxicated rats"}, "CYP2D2": {"target": "CYP2D2 (Rattus norvegicus, UniProt P10634)", "assay": "CYP450 activity with probe substrate (dextromethorphan) in liver microsomes of CCl4-intoxicated rats"}, "CYP1A2": {"target": "CYP1A2 (Rattus norvegicus, UniProt P04799)", "assay": "CYP450 activity with probe substrate (phenacetin) in liver microsomes of CCl4-intoxicated rats"}, "CYP2E1": {"target": "CYP2E1 (Rattus norvegicus, UniProt P05182)", "assay": "CYP450 activity with probe substrate (chlorzoxazone) in liver microsomes of CCl4-intoxicated rats"}, "CYP2C11": {"target": "CYP2C11 (Rattus norvegicus, UniProt P08683)", "assay": "CYP450 activity with probe substrate (S-mephenytoin) in liver microsomes of CCl4-intoxicated rats"}}}
{"substance": "carbon tetrachloride", "values": [{"measurement": "Decrease of metabolic production rate of 4-hydroxydiclofenac (CYP2C6)", "setting": "CYP2C6", "value": 77, "unit": "%"}, {"measurement": "Decrease of metabolic production rate of 1-hydroxymidazolam (CYP3A)", "setting": "CYP3A", "value": 46, "unit": "%"}, {"measurement": "Decrease of metabolic production rate of dextrophan (CYP2D2)", "setting": "CYP2D2", "value": 79, "unit": "%"}, {"measurement": "Decrease of metabolic production rate of acetaminophen (CYP1A2)", "setting": "CYP1A2", "value": 43, "unit": "%"}, {"measurement": "Decrease of metabolic production rate of 6-hydroxychlorzoxazone (CYP2E1)", "setting": "CYP2E1", "value": 43, "unit": "%"}, {"measurement": "Decrease of metabolic production rate of 4-hydroxymephenytoin (CYP2C11)", "setting": "CYP2C11", "value": 63, "unit": "%"}]}
